Measured values as given in ChEMBL document CHEMBL1156601, “Aminomethylpiperazines as selective urotensin antagonists” (Bioorg Med Chem Lett, 2008).

Protein sequences, listed by entry. Tags and fused reporters are not part of them. Lines headed by an entry give the natural chain unless they say otherwise; changes in a name come on top.
UniProt P41145: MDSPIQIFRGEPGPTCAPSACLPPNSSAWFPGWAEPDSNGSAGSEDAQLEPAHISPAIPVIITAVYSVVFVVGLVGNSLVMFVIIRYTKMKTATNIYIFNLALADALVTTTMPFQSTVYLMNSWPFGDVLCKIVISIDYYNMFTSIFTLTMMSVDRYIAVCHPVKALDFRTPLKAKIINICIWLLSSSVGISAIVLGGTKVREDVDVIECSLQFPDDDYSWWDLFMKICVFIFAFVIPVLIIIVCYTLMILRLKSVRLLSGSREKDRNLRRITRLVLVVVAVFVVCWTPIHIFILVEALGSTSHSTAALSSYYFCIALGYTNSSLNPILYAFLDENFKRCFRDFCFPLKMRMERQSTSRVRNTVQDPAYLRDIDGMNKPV

Target: Kappa-type opioid receptor (Homo sapiens, UniProt P41145)
Assay: Agonist activity at human kappa opioid receptor expressed in CHO-K1 cells by [35S]GTPgamma binding assay

## O=C(Cn1c(C(F)(F)F)nc2ccccc21)N1CCN(c2ccccc2)CC1CN1CCCC1 (stereo unspecified)
  EC50: 4 nM
